What is called IC50 is the midpoint of a concentration-inhibition curve.

Protein sequences, listed by entry. Tags and fused reporters are not part of them. Lines headed by an entry give the natural chain unless they say otherwise; changes in a name come on top.
UniProt P52333: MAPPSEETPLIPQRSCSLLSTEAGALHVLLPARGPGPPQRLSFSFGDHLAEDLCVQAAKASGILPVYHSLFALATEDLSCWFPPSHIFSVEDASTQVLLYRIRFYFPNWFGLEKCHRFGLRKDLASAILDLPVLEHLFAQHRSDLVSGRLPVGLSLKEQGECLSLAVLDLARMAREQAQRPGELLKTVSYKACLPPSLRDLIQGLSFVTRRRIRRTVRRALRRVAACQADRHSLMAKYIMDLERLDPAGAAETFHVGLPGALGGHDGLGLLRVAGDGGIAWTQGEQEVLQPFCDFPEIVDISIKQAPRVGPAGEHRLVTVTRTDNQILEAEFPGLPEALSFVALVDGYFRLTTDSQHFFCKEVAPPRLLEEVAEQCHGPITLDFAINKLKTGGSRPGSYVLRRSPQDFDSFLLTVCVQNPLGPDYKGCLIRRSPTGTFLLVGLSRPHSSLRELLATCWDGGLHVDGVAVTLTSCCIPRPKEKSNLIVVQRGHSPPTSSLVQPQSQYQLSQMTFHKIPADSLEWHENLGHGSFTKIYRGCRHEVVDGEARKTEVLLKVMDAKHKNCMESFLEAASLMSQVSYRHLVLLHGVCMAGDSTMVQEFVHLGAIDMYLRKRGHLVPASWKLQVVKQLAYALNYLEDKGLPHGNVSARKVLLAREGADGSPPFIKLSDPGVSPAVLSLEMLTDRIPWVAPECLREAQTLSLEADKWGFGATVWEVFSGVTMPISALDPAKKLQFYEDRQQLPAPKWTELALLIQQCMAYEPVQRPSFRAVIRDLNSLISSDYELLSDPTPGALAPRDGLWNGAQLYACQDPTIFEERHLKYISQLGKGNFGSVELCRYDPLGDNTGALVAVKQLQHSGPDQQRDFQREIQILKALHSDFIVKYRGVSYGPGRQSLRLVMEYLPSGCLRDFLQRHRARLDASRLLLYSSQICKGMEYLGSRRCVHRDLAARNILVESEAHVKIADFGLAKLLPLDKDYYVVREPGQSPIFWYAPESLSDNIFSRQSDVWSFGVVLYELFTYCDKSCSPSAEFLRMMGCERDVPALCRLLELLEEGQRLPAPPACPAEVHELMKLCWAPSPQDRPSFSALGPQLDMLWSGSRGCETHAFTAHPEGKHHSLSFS
UniProt P29597: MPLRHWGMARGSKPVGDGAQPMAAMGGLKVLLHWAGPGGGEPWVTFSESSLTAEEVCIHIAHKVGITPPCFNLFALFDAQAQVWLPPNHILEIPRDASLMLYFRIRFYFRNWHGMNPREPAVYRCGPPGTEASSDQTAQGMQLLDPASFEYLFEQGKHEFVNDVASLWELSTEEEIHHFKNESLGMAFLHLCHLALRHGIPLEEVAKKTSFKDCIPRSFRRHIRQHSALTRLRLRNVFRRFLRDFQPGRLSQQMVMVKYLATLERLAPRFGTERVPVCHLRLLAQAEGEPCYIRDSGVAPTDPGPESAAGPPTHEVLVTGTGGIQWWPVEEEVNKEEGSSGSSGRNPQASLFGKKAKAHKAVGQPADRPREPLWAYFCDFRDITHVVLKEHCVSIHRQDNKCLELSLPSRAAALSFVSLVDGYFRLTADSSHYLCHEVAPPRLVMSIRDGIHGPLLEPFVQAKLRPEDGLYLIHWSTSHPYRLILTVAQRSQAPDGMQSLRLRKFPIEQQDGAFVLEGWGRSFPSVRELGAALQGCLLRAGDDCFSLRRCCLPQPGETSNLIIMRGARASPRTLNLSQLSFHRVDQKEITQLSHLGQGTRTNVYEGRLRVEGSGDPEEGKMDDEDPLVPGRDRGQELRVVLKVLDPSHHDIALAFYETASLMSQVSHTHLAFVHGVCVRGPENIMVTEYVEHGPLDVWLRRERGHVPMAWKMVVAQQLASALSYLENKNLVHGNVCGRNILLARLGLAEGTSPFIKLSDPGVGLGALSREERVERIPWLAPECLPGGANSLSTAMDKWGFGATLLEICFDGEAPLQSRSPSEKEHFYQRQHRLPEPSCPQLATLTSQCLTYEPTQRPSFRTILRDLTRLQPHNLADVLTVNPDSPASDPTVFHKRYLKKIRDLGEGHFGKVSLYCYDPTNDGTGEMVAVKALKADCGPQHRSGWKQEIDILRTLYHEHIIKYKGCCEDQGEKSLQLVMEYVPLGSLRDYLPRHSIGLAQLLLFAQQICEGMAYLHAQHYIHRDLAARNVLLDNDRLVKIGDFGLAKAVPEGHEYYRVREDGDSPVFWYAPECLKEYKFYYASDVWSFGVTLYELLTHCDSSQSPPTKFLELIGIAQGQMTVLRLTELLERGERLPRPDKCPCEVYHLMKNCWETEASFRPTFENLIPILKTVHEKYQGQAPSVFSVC

Where two headings read alike, the source gives them in different places. Some results are limits rather than exact numbers.

For assay [1], the target named is T1, JAK3 (Homo sapiens (Human), UniProt P52333). As to the kind of experiment: JAK3 enzyme assay (Assay Example^b 1).
In assay [2] the target is T2, JAK2 (Homo sapiens (Human), UniProt O60674). Nature of the assay: JAK2 enzyme assay (Assay Example^b 1).
Another assay has as its target Tyk2 (Homo sapiens (Human), UniProt P29597). Nature of the assay: Enzyme assay (Assay Example^a 1), Tyk2. Type of assay: biochemical.
For assay [3], the target named is T1, JAK3. As to the kind of experiment: Enzyme assay (Assay Example^a 1), JAK3. The class given is biochemical.
A further assay has as its target JAK1 (Homo sapiens (Human), UniProt P23458). Nature of the assay: Enzyme assay (Assay Example^a 1), JAK1. Particulars: ATP 100 μM. The class given is biochemical.
In assay [4] the target is T2, JAK2. As to the kind of experiment: Enzyme assay (Assay Example^a 1), JAK2. The class given is biochemical.
The mark [5] stands for this setting: IC50 (μM) JAK2, Table^b 79, ATP 100 μM.
[6] abbreviates: IC50 (μM) JAK2, Table^b 80, ATP 100 μM.
The mark [7] stands for this setting: ATP 100 μM, Table^a 154, read-out: IC50 (μM) JAK2.
[8] abbreviates: ATP 100 μM, read-out: IC50 (μM) JAK2.
Setting [9] is: IC50 (μM) JAK3, Table^b 80, ATP 100 μM.

As to `O=c1ccn(C2CCCCC2)c2c1cnc1[nH]cnc12` [compound 20], the IC50 against JAK3 [1] (IC50 (μM) JAK3, Table^b 78, ATP 100 μM) was found to be 0.51 µM; at JAK2 [2] (setting [5]), 1.6 µM.

Consider `N#Cc1ccc(CN2CCC(c3nnn4cnc5[nH]ccc5c34)CC2)c(F)c1` [compound 40], for which it took 0.15 µM to reach half-maximal inhibition against Tyk2 (IC50).

As to `O=C(OCc1ccccc1)N1CCC(c2ncn3cnc4[nH]ccc4c23)CC1` [compound 84], the IC50 at JAK3 [3] (read-out: IC50 (μM) JAK3) was determined as 0.62 µM; against JAK1 (Table^a 154), 0.018 µM.

At JAK1 (Table^a 154), `OC(CN1CCC(c2nnn3cnc4[nH]ccc4c23)CC1)c1ccc(C(F)(F)F)cc1` (racemic) [compound 212, 2-[4-(7H-Pyrrolo[3,2-e][1,2,3]triazolo[1,5-c]pyrimidin-1-yl)piperidin-1-yl]-1-[4-(trifluoromethyl)phenyl]ethanol] showed a half-inhibitory concentration (IC50) of 0.0054 µM.

The molecule `CC(C)(C)OC(=O)N[C@H]1CC[C@H](c2nnn3cnc4[nH]ccc4c23)CC1` [compound 59] showed an IC50 against JAK1 (Table^a 154) of 0.032 µM.

As for `C[C@@H]1CCN(C2CCCC2)C[C@@H]1n1ccc(=O)c2cnc3[nH]ccc3c21` (racemic) [compound 47], the IC50 on JAK2 [2] (setting [6]) was 0.23 µM.

In the case of `O=C(Nc1nncs1)N1CCCC(c2nnn3cnc4[nH]ccc4c23)C1` (racemic) [compound 20], the IC50 at JAK2 [4] (setting [7]) turned out to be 0.032 µM; at JAK3 [3], 0.33 µM.

`O=C(OCc1ccccc1)N1CCCC(c2ncn3cnc4[nH]ccc4c23)C1` (racemic) [compound 3]: the IC50 on JAK2 [4] (setting [8]) is 0.13 µM.

With `OC[C@H]1CC[C@H](c2nnn3cnc4[nH]ccc4c23)CC1` [compound 10], the results for the half-inhibitory concentration (IC50) on JAK2 [4] (setting [8]) and against JAK1 were 0.019 µM and 0.0031 µM, respectively.

As for `Fc1ccc(N[C@H]2CC[C@H](c3nnn4cnc5[nH]ccc5c34)CC2)cc1` [381b, N-[trans-4-(7H-pyrrolo[3,2-e][1,2,3]triazolo[1,5-c]pyrimidin-1-yl)cyclohexyl]-4-fluoroaniline], the IC50 on JAK2 [4] (setting [8]) was determined as 0.057 µM; against Tyk2 (ATP 100 μM), 0.24 µM; at JAK3 [3] (read-out: IC50 (μM) JAK3), 0.42 µM.

With `c1cncc(CN2CCCC(c3nnn4cnc5[nH]ccc5c34)C2)c1` (racemic) [compound 18], the IC50 against JAK3 [3] was more than 1 µM; on JAK1 (Table^a 154) it was 0.21 µM.

In the case of `CC(C)(C)OC(=O)N1CCCC(c2nnn3cnc4[nH]ccc4c23)C1` (racemic) [compound 13], the IC50 is 0.25 µM on JAK2 [4], more than 1 µM against JAK3 [3] and 0.12 µM at JAK1 (Table^a 154).

As to `CC1CCN(C(=O)C2CCC(C(C)(C)C)CC2)CC1n1ccc(=O)c2cnc3[nH]ccc3c21` (single isomer, unassigned) [Synthetic Example^b 48b, 1-{1-[4-(tert-Butyl)cyclohexanecarbonyl]-4-methylpiperidin-3-yl}-1H-pyrrolo[2,3-h][1,6]naphthyridin-4(7H)-one], 0.46 µM corresponded to half-maximal inhibition at JAK2 [2] (setting [6]) (IC50).

Take `CC1OCN(C2CCCCC2)c2c1cnc1[nH]ccc21` (centres unmarked) [compound 1]: at JAK2 [2] (setting [5]), the IC50 was 2.2 µM.

With `Fc1ccc(C2(NC[C@H]3CC[C@H](c4nnn5cnc6[nH]ccc6c45)CC3)COC2)cc1` [compound 322, N-{[trans-4-(7H-pyrrolo[3,2-e][1,2,3]triazolo[1,5-c]pyrimidin-1-yl)cyclohexyl]methyl}-3-(4-fluorophenyl)oxetan-3-amine], on JAK2 [4] (setting [8]), the IC50 was found to be 0.0071 µM.

For the molecule `O=c1[nH]c(=O)n(C2CCCCC2)c2c1cnc1[nH]ccc12` [compound 53], the IC50 at JAK3 [1] (setting [9]) came out at 0.047 µM; on JAK2 [2] (setting [6]) it was 0.048 µM.

Molecule `O=c1[nH]c(=O)n([C@H]2CC[C@H](CN3CC(O)(C(F)(F)F)C3)CC2)c2c1cnc1[nH]ccc12` [compound 129] showed an IC50 on JAK2 [2] (IC50 (μM) JAK2) of 0.18 µM.

For `c1ccc(CCN[C@H]2CC[C@H](c3nnn4cnc5[nH]ccc5c34)CC2)cc1` [135b], the IC50 turned out to be 0.094 µM on JAK2 [4] (setting [7]) and 0.18 µM at Tyk2 (ATP 100 μM, Table^a 154).

Molecule `O=CC1CCC(n2c(=O)[nH]c(=O)c3cnc4[nH]ccc4c32)CC1` (centres unmarked) [compound 133] showed a 50% inhibitory concentration (IC50) at JAK2 [2] (IC50 (μM) JAK2, ATP 100 μM) of 0.27 µM.

With `CC1CCN(C(=O)C2CCC(C(C)(C)C)CC2)CC1n1ccc(=O)c2cnc3[nH]ccc3c21` (single isomer, unassigned) [Synthetic Example^b 48a, 1-{1-[4-(tert-Butyl)cyclohexanecarbonyl]-4-methylpiperidin-3-yl}-1H-pyrrolo[2,3-h][1,6]naphthyridin-4(7H)-one], inhibition against JAK2 [2] (setting [6]) was half-maximal at 1 µM (IC50).

`c1cc2c(ncn3nnc(C4CCNCC4)c23)[nH]1` [compound 27]: the IC50 against Tyk2 and at JAK3 [3] (read-out: IC50 (μM) JAK3) was more than 1 µM in each case.

Regarding `N#Cc1ccc(CN2CCC(n3c(=O)[nH]c(=O)c4cnc5[nH]ccc5c43)CC2)cc1` [compound 50], the IC50 at JAK3 [1] (setting [9]) was more than 1 µM.

`FC(F)(F)Oc1ccc(CNC[C@H]2CC[C@H](c3nnn4cnc5[nH]ccc5c34)CC2)cc1` [compound 110]: the IC50 against Tyk2 (ATP 100 μM, Table^a 154) stood at 0.0049 µM; at JAK3 [3] (read-out: IC50 (μM) JAK3), 0.51 µM.

Consider `N#CCNC[C@H]1CC[C@H](n2c(=O)[nH]c(=O)c3cnc4[nH]ccc4c32)CC1` [compound 127], for which the IC50 against JAK3 [1] (IC50 (μM) JAK3, ATP 100 μM) is more than 1 µM.

Consider `N#Cc1ccc(NC2CCC(c3nnn4cnc5[nH]ccc5c34)CC2)c(F)c1` (centres unmarked) [compound 129], for which the IC50 on JAK2 [4] (read-out: IC50 (μM) JAK2) was 0.078 µM; at JAK3 [3] (read-out: IC50 (μM) JAK3), more than 1 µM.

For `Fc1ccc(N[C@H]2CC[C@@H](c3nnn4cnc5[nH]ccc5c34)CC2)cc1` [381a, N-[cis-4-(7H-pyrrolo[3,2-e][1,2,3]triazolo[1,5-c]pyrimidin-1-yl)cyclohexyl]-4-fluoroaniline], the figures for the IC50 at JAK2 [4] (setting [8]), against Tyk2 (ATP 100 μM) and on JAK3 [3] (read-out: IC50 (μM) JAK3) were 0.22 µM, more than 1 µM and 0.26 µM, respectively.

For the molecule `c1ccc(CCN[C@H]2CC[C@@H](c3nnn4cnc5[nH]ccc5c34)CC2)cc1` [135a], the IC50 at JAK2 [4] (setting [7]) was found to be 0.94 µM.

`O=S1(=O)C=CN(C2CCCCC2)c2c1cnc1[nH]ccc21` [compound 12] registered an IC50 against JAK2 [2] (setting [5]) of 0.46 µM.

In turn, `c1cc2c(ncn3nnc(C4CCCNC4)c23)[nH]1` (racemic) [compound 15] had an IC50 at JAK1 (Table^a 154) of 0.29 µM.

At JAK2 [2] (IC50 (μM) JAK2, ATP 100 μM), `N#CCC[C@H]1CC[C@H](n2c(=O)[nH]c(=O)c3cnc4[nH]ccc4c32)CC1` [Synthetic Example^b 134, 3-[trans-4-(2,4-Dioxo-2,3,4,7-tetrahydro-1H-pyrrolo[3′,2′:5,6]pyrido[4,3-d]pyrimidin-1-yl)cyclohexyl]propanenitrile] had an IC50 of 0.025 µM.

In turn, `O=c1[nH]c(=O)n(C2CCC(CNC3(C(F)(F)F)CC3)CC2)c2c1cnc1[nH]ccc12` (centres unmarked) [compound 122] came in with an IC50 against JAK3 [1] (IC50 (μM) JAK3, ATP 100 μM) of more than 1 µM.

For the molecule `CC(C)(C)OC(=O)N1CCC(c2nnn3cnc4[nH]ccc4c23)CC1` [compound 24], the IC50 against Tyk2 came to 5.3 µM.

With `Fc1ccc(C2(NC[C@H]3CC[C@H](c4nnn5cnc6[nH]ccc6c45)CC3)CC2)cc1` [compound 323, N-{[trans-4-(7H-pyrrolo[3,2-e][1,2,3]triazolo[1,5-c]pyrimidin-1-yl)cyclohexyl]methyl}-1-(4-fluorophenyl)cyclopropanamine], the IC50 against JAK1 is 0.0051 µM.

`OC[C@H]1CC[C@@H](c2nnn3cnc4[nH]ccc4c23)CC1` [compound 401, [cis-4-(7H-Pyrrolo[3,2-e][1,2,3]triazolo[1,5-c]pyrimidin-1-yl)cyclohexyl]methanol]: the figures for the IC50 at JAK2 [4] (setting [8]) and on JAK1 were 0.036 µM and 0.012 µM, respectively.

In the case of `c1cc2c(ncn3nnc([C@H]4CC[C@H](CNC[C@H]5CCCO5)CC4)c23)[nH]1` [compound 289, 1-[trans-4-(7H-pyrrolo[3,2-e][1,2,3]triazolo[1,5-c]pyrimidin-1-yl)cyclohexyl]-N-{[(R)-tetrahydrofuran-2-yl]methyl}methanamine], the figures for the IC50 on Tyk2 (ATP 100 μM) and at JAK3 [3] (read-out: IC50 (μM) JAK3) were 0.16 µM and 0.85 µM, respectively.

The record behind these values is US9216999B2, “Substituted pyrrolo[2,3-h][1,6]naphthyridines and compositions thereof as JAK inhibitors” (priority 2011, dated 2015).
